{"source": "ChEMBL document CHEMBL1125386", "about": "“Small atrial natriuretic peptide analogues: design, synthesis, and structural requirements for guanylate cyclase activation” (J Med Chem, 1992)", "species_on_record": "Oryctolagus cuniculus", "experiment": "Compound was evaluated for the intrinsic vasorelaxation (i.vr) in a standard tissue bath preparation using rabbit aortic rings precontracted with histamine", "format": "functional, Aorta", "in_short": "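Rabbit aortic rings (4–5 mm) in Krebs-Henseleit buffer, gassed 95:5 O2/CO2, pH 7.4, isometric tension, baseline 2 g held 2 h. Rings contracted with 3 μM histamine, then six cumulative half-log peptide increments over 90 min, range 10⁻⁸ to 10⁻⁴ M. Triplicate determinations.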", "data": [{"smiles": "CC[C@H](C)[C@@H]1NC(=O)[C@H](CCCN=C(N)N)NC(=O)[C@H](CC(=O)O)NC(=O)[C@H]([C@@H](C)CC)NC(=O)[C@H](CCCN=C(N)N)NC(=O)CNC(=O)CNC(=O)[C@H](Cc2ccccc2)NC(=O)[C@@H](NC(=O)[C@H](CO)NC(=O)[C@H](CO)NC(=O)[C@H](CCCN=C(N)N)NC(=O)[C@H](CCCN=C(N)N)NC(=O)[C@H](CC(C)C)NC(=O)[C@@H](N)CO)CSSC[C@@H](C(=O)N[C@@H](CC(N)=O)C(=O)N[C@@H](CO)C(=O)N[C@@H](Cc2ccccc2)C(=O)N[C@@H](CCCN=C(N)N)C(=O)N[C@@H](Cc2ccc(O)cc2)C(=O)O)NC(=O)CNC(=O)[C@H](CC(C)C)NC(=O)CNC(=O)[C@H](CO)NC(=O)[C@H](CCC(N)=O)NC(=O)[C@H](C)NC(=O)CNC1=O", "values": [{"measurement": "Intrinsic vasorelaxation", "value": "1 fraction of rANP max"}]}]}
